Where two headings read alike, the source gives them in different places.
Assay: Plasma and brain concentrations in 6 Hz studies (LC-MS/MS)
Format: in vivo, mouse
Conditions: Levetiracetam 300 mg/kg IP 1 h alone
Method: Sample Collection and Preparation: Mice were anesthetized by isoflurane inhalation (TECH-018) until they reached a surgical plane of anesthesia. Then a syringe (1 mL syringe with a 22 gauge needle) was inserted under the sternum into the heart (TECH-031). Approximately 0.5 mL of blood was collected, deposited into a K2EDTA tube, and stored on ice. Animals were then euthanized by cervical dislocation (TECH-018). Brains were removed, placed into a pre-weighed vial, and snap frozen on dry ice. At the end of the sample collection, blood was centrifuged at 4000 rpm for 10 minutes at 4° C., and the plasma pipetted into a labeled tube. All samples were stored in a −80° C. freezer until bioanalysis (8 days after sample collection for Studies 3A and 3B; 20 days after sample collection for Study 3C).
Plasma and Tissue Sample Analysis: Bead mill polypropylene tubes containing weighed brain tissues were thawed at room temperature and 3 mL of homogenization solvent (water:acetonitrile (1:1, v:v)) was added. The tubes were placed in the Bead Mill Homogenizer (Bead Ruptor Elite Model, Omni International) and shaken at a velocity of 3.70 m/s for a single cycle lasting 30 seconds. The homogenized tube was centrifuged at 4000 rpm for 20 minutes, the supernatant was transferred to a 1.5 mL Eppendorf tube, and stored frozen at −80° C. until analysis. All samples including plasma and brain homogenate extracts (including calibration and quality control (QC) samples prepared in K2EDTA rat plasma), were extracted by protein precipitation. […] The samples in the 1.5 mL tubes were vortex mixed and then centrifuged for 20 minutes at 13,000 rpm. Fifty microliters of the supernatant was mixed with 150 μL of water/acetonitrile (1:1) in a 96 well plate which was centrifuged post mixing for 20 minutes at 4000 rpm, and was then ready for analysis by liquid chromatography tandem mass spectrometry (LC-MS/MS).
Samples were analyzed by a research-grade LC-MS/MS method as follows: […]

concentration at 1 h (CF-1, mouse, brain, intraperitoneal, 300 mg/kg, Study 3C, read-out: Brain): 1130 ± 130 µM | concentration at 1 h (CF-1, mouse, plasma, intraperitoneal, 300 mg/kg, Study 3C, read-out: Plasma): 1770 ± 287 µM | Plasma (Study 3B, listed as Lev): 1500 µM | concentration at 1 h (Study 3B, listed as Lev, read-out: Brain): 861 µM | Plasma (Study 3C, listed as Lev): 1770 µM | concentration at 1 h (Study 3C, listed as Lev, read-out: Brain): 1130 µM | concentration at 1 h (mouse, brain, intraperitoneal, 300 mg/kg, Study 3C, read-out: Brain): 1130 µM | concentration at 1 h (mouse, plasma, intraperitoneal, 300 mg/kg, Study 3C, read-out: Plasma): 1770 ± 287 µM
Structure (SMILES): CC[C@@H](C(N)=O)N1CCCC1=O [Levetiracetam, reference compound]
